Results taken from patent US20220218832A1, “POLYMER DRUG” (BIODYNAMIC RESEARCH FOUNDATION, priority 2019, published 2022).
Where two headings read alike, the source gives them in different places.

Legend:
[1] = Particle size by dynamic light scattering; format: physicochemical; settings: 0.1 M tris-HCl buffer (pH 8.2), 15 mg/ml, 25° C.
Protocol: Then, each solution was measured at 25° C. by a light scattering apparatus, Model ELSZ⋅2000ZS manufactured by Otsuka Electronics (Photal Inc., Osaka).

[2] = Surface charge (Zeta potential); format: physicochemical; settings: deionized water, 20 mg/ml
[3] = pH of lyophilized product dissolved in distilled water; format: physicochemical
[4] = average of 30 particles
[5] = buffers pH 5.0, 6.0, 7.4; 37° C.
[6] = 30 mg/kg (boric acid equivalent) i.v., monitored 30 days
[7] = S180 tumor, ddY mice, 15 mg/kg i.v., 24 hours, 10B by ICP MS
[8] = 15 mg/kg boric acid equivalent i.v., 24 hours

SMA-glucosamine-boric acid complex [SGB]
Average particle size (dynamic light scattering method) in diameter [1]: 95 ± 5 nm | Surface charge (Zeta potential) [2]: −37 mV | Intrinsic pH in solution of lyophilized product in distilled water [3]: 7.2 | Average particle size by transmission electron microscope (dried state) [4]: 85±5.5 nm | Average particle size by transmission electron microscope (dried state) ([4]; listed as SMA-glucosamine-boric acid complex(SGB)): About 85 nm | Release of boric acid [5]: most quickly released at acidic pH 5.0 | Cytotoxicity (cell viability, MTT) (Colon cancer C26 cells): very potent cytotoxicity | Cytotoxicity (cell viability, MTT) (HeLa cells): very potent cytotoxicity | Body weight [6]: a little weight loss on 2 to 4 days, but it was recovered on 5 to 6 days | Toxicity [6]: No serious toxicity | Accumulation in tumor sites compared with free boric acid [7]: significantly more accumulated in the tumor sites than free boric acid | Urinary excretion compared with free boric acid [8]: excreted much less in urine than free boric acid
